Data reported in patent US20140065611A1, “MODIFICATION OF NEURO[…] OF MERCURY BY A GENETIC PO[…] COPROPOR[…] IN CHILDREN” (University of Washington through its Center for …, priority 2012, published 2014).

Legend:
children [1] = details: boys
children [2] = details: for Beta (SE), Hg^0 dose-response, Stroop Test - Word/Color / rpart, Hg^0 dose-response, Stroop Test - Word/Color / Beta (SE), main effect Hg (ln), Stroop Test - Word/Color / rpart, main effect Hg (ln), Stroop Test - Word/Color: boys; for Beta (SE), Hg^0 dose-response, Stroop Test - Word/Color / rpart, Hg^0 dose-response, Stroop Test - Word/Color: acute Hg^0 (HgU Year 2)
children [3] = details: boys; remark: listed apart in the source
children [4] = details: boys; remark: listed apart in the source
children [5] = details: boys; remark: listed apart in the source
children [6] = details: for Beta (SE), Hg^0 dose-response, Adult Trails A - Time (Sec) / rpart, Hg^0 dose-response, Adult Trails A - Time (Sec): boys
children [7] = details: boys; remark: listed apart in the source
children [8] = details: boys; remark: listed apart in the source
children [9] = details: boys, Year 7, maximum Hg^0
children [10] = details: boys, CPOX4 Het or Mut, Year 7, maximum Hg^0
[11] = CPOX4 Het or Mut, Year 7, cumulative Hg^0
[12] = CPOX4 Het or Mut, Year 7, maximum Hg^0
[13] = CPOX4 Het or Mut, acute Hg^0 (HgU Year 2)
[14] = CPOX WT, Year 7, cumulative Hg^0
[15] = CPOX WT, acute Hg^0 (HgU Year 2)

Substance: elemental mercury [Hg^0]
- Beta (SE), Hg^0 dose-response, Stroop Test - Color (children [1]; [11]): −12.55 (4.05)*
- rpart, Hg^0 dose-response, Stroop Test - Color (children [1]; [11]): −.47 (.004)*
- Beta (SE), Hg^0 dose-response, Stroop Test - Color (children [1]; [12]): −11.17 (3.80)
- rpart, Hg^0 dose-response, Stroop Test - Color (children [1]; [12]): −.45 (.006)
- Beta (SE), Hg^0 dose-response, Stroop Test - Color (children [1]; [13]): −8.40 (2.80)*
- rpart, Hg^0 dose-response, Stroop Test - Color (children [1]; [13]): −.42 (.005)*
- Beta (SE), Hg^0 dose-response, Stroop Test - Color (children [1]; [14]): −1.14 (2.32)
- rpart, Hg^0 dose-response, Stroop Test - Color (children [1]; [14]): −.06 (.63)
- Beta (SE), Hg^0 dose-response, Stroop Test - Color (children [1]; CPOX WT, Year 7, maximum Hg^0): .73 (2.24)
- rpart, Hg^0 dose-response, Stroop Test - Color (children [1]; CPOX WT, Year 7, maximum Hg^0): .04 (.74)
- Beta (SE), Hg^0 dose-response, Stroop Test - Color (children [1]; [15]): −.19 (1.80)
- rpart, Hg^0 dose-response, Stroop Test - Color (children [1]; [15]): −.01 (.92)
- Beta (SE), Hg^0 dose-response, Stroop Test - Word/Color (children [2]; CPOX4 Het or Mut): −3.50 (1.68)*
- rpart, Hg^0 dose-response, Stroop Test - Word/Color (children [2]; CPOX4 Het or Mut): −.31 (.04)*
- Beta (SE), Hg^0 dose-response, Stroop Test - Word/Color (children [2]; CPOX WT): 1.09 (1.51)
- rpart, Hg^0 dose-response, Stroop Test - Word/Color (children [2]; CPOX WT): .07 (.47)
- Beta (SE), main effect Hg (ln), Stroop Test - Word/Color (children [2]; Year 7, cumulative Hg): −3.30 (1.64)*
- rpart, main effect Hg (ln), Stroop Test - Word/Color (children [2]; Year 7, cumulative Hg): −.18 (.05)*
- Beta (SE), main effect Hg (ln), Stroop Test - Word/Color (children [2]; Year 7, maximum Hg): −2.17 (.59)
- rpart, main effect Hg (ln), Stroop Test - Word/Color (children [2]; Year 7, maximum Hg): −.13 (.16)
- direction of significant main effect of acute Hg^0 exposure, Stroop Color/Word test (children [2]; girls, Year 2, p≦0.03): improved direction
- Beta (SE), Hg^0 dose-response, Stroop Test - Word (children [3]; [11]): −18.06 (4.89)*
- rpart, Hg^0 dose-response, Stroop Test - Word (children [3]; [11]): −.54 (.001)*
- Beta (SE), Hg^0 dose-response, Stroop Test - Word (children [3]; [12]): −17.10 (4.51)
- rpart, Hg^0 dose-response, Stroop Test - Word (children [3]; [12]): −.54 (.001)
- Beta (SE), Hg^0 dose-response, Stroop Test - Word (children [3]; [14]): −2.90 (3.20)
- rpart, Hg^0 dose-response, Stroop Test - Word (children [3]; [14]): −.10 (.37)
- Beta (SE), Hg^0 dose-response, Stroop Test - Word (children [3]; CPOX WT, Year 7, maximum Hg^0): −.77 (3.10)
- rpart, Hg^0 dose-response, Stroop Test - Word (children [3]; CPOX WT, Year 7, maximum Hg^0): −.03 (.80)
- Beta (SE), Hg^0 dose-response, WAIS-III - Digit Span (children [4]; [11]): −3.57 (1.12)*
- rpart, Hg^0 dose-response, WAIS-III - Digit Span (children [4]; [11]): −.48 (.003)*
- Beta (SE), Hg^0 dose-response, WAIS-III - Digit Span (children [4]; [12]): −3.90 (.98)
- rpart, Hg^0 dose-response, WAIS-III - Digit Span (children [4]; [12]): −.57 (.0001)
- Beta (SE), Hg^0 dose-response, WAIS-III - Digit Span (children [4]; [14]): .11 (.77)
- rpart, Hg^0 dose-response, WAIS-III - Digit Span (children [4]; [14]): .02 (.88)
- Beta (SE), Hg^0 dose-response, WAIS-III - Digit Span (children [4]; CPOX WT, Year 7, maximum Hg^0): .87 (.74)
- rpart, Hg^0 dose-response, WAIS-III - Digit Span (children [4]; CPOX WT, Year 7, maximum Hg^0): .13 (.24)
- Beta (SE), Hg^0 dose-response, WMS-III - Spatial Span (children [5]; [11]): −2.45 (.97)*
- rpart, Hg^0 dose-response, WMS-III - Spatial Span (children [5]; [11]): −.40 (.02)*
- Beta (SE), Hg^0 dose-response, WMS-III - Spatial Span (children [5]; [12]): −2.89 (.85)
- rpart, Hg^0 dose-response, WMS-III - Spatial Span (children [5]; [12]): −.50 (.002)
- Beta (SE), Hg^0 dose-response, WMS-III - Spatial Span (children [5]; [14]): .17 (.62)
- rpart, Hg^0 dose-response, WMS-III - Spatial Span (children [5]; [14]): .03 (.79)
- Beta (SE), Hg^0 dose-response, WMS-III - Spatial Span (children [5]; CPOX WT, Year 7, maximum Hg^0): .57 (.60)
- rpart, Hg^0 dose-response, WMS-III - Spatial Span (children [5]; CPOX WT, Year 7, maximum Hg^0): .11 (.35)
- Beta (SE), Hg^0 dose-response, Adult Trails A - Time (Sec) (children [6]; [11]): 11.25 (3.83)*
- rpart, Hg^0 dose-response, Adult Trails A - Time (Sec) (children [6]; [11]): .45 (.006)*
- Beta (SE), Hg^0 dose-response, Adult Trails A - Time (Sec) (children [6]; [12]): 13.04 (3.30)
- rpart, Hg^0 dose-response, Adult Trails A - Time (Sec) (children [6]; [12]): .56 (.0001)
- Beta (SE), Hg^0 dose-response, Adult Trails A - Time (Sec) (children [6]; [14]): −.80 (2.07)
- rpart, Hg^0 dose-response, Adult Trails A - Time (Sec) (children [6]; [14]): −.04 (.70)
- Beta (SE), Hg^0 dose-response, Adult Trails A - Time (Sec) (children [6]; CPOX WT, Year 7, maximum Hg^0): −2.37 (1.98)
- rpart, Hg^0 dose-response, Adult Trails A - Time (Sec) (children [6]; CPOX WT, Year 7, maximum Hg^0): −.14 (.24)
- direction of significant main effect of acute Hg^0 exposure, Trails A test (children [6]; girls, Year 2, p≦0.03): impaired direction
- Beta (SE), Hg^0 dose-response, SRT Mean (children [7]; [11]): .15 (.05)*
- rpart, Hg^0 dose-response, SRT Mean (children [7]; [11]): .44 (.007)*
- Beta (SE), Hg^0 dose-response, SRT Mean (children [7]; [12]): .14 (.05)*
- rpart, Hg^0 dose-response, SRT Mean (children [7]; [12]): .46 (.005)*
- Beta (SE), Hg^0 dose-response, SRT Mean (children [7]; [14]): .00 (.03)
- rpart, Hg^0 dose-response, SRT Mean (children [7]; [14]): .01 (.96)
- Beta (SE), Hg^0 dose-response, SRT Mean (children [7]; CPOX WT, Year 7, maximum Hg^0): .01 (.03)
- rpart, Hg^0 dose-response, SRT Mean (children [7]; CPOX WT, Year 7, maximum Hg^0): .02 (.86)
- Beta (SE), Hg^0 dose-response, WAIS-III - Digit Symbol (children [8]; [11]): −20.70 (6.08)*
- rpart, Hg^0 dose-response, WAIS-III - Digit Symbol (children [8]; [11]): −.50 (.002)*
- Beta (SE), Hg^0 dose-response, WAIS-III - Digit Symbol (children [8]; [12]): −18.17 (5.75)*
- rpart, Hg^0 dose-response, WAIS-III - Digit Symbol (children [8]; [12]): −.48 (.003)*
- Beta (SE), Hg^0 dose-response, WAIS-III - Digit Symbol (children [8]; [14]): −2.46 (3.33)
- rpart, Hg^0 dose-response, WAIS-III - Digit Symbol (children [8]; [14]): −.08 (.46)
- Beta (SE), Hg^0 dose-response, WAIS-III - Digit Symbol (children [8]; CPOX WT, Year 7, maximum Hg^0): −.32 (3.32)
- rpart, Hg^0 dose-response, WAIS-III - Digit Symbol (children [8]; CPOX WT, Year 7, maximum Hg^0): −.01 (.92)
- Beta (SE), Hg^0 dose-response, Adult Trails B (children [9]; CPOX4 Het or Mut): 22.26 (7.03)*
- rpart, Hg^0 dose-response, Adult Trails B (children [9]; CPOX4 Het or Mut): .48 (.003)*
- Beta (SE), Hg^0 dose-response, Adult Trails B (children [9]; CPOX WT): 1.98 (6.08)
- rpart, Hg^0 dose-response, Adult Trails B (children [9]; CPOX WT): .04 (.75)
- Beta (SE), Hg^0 dose-response, RAVALT TR5 - List A (children [10]): −1.78 (.80)*

Read-outs that look alike come from different tables or passages of the source. Marks after values point to notes of the source that are not given here.
